# Antibody variant affinities, Ab-95 light chain, assay 2

Reference: Engelhart et al. 2022, doi:10.1038/s41597-022-01779-4. File: FLAb, binding data.

Binding partner: SARS-CoV-2 spike HR2 peptide, sequence PDVDLGDISGINAS.

Parent scFv Ab-95: VH joined to VL by a (GGGGS)3 linker. Changes lie in the light chain CDRs alone.
VH: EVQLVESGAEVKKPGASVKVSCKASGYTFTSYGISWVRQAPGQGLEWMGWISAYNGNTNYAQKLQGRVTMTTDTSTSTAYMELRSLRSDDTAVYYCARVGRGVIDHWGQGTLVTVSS
VL: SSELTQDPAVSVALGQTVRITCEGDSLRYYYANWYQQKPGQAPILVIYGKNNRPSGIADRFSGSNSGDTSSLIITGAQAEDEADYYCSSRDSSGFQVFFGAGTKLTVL

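AAYL52 was designed without a model: most single CDR substitutions and a random sample of double and triple ones. The scFvs were displayed on barcoded MATa yeast, the peptide on MATalpha yeast. Binding brings cells together so that they mate, and sequencing counts the barcode pairs among the diploids. A regression on co-assayed BCL2-family reference pairs converts the normalised counts of each replicate to an apparent Kd. The assay was run in three technical replicates.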

Positions count from residue 1 of the parent VL; G24L puts L in place of G. This list gathers variants with a substitution at R90 (VL, numbered from residue 1). Numbers give log10(Kd / nM), so 0 is 1 nM and 3 is 1 µM. Smaller is tighter. "ND" means that the variant was in the library but no mating with the target was seen in that replicate; the authors take this as a sign of poor binding, and no number exists. Three control strains display no target. For library AAYL52, 28% of the pairings with them gave a signal, with a median of 3.91 and one signal in twenty below 2.90, so weak values seen in few replicates may be background.

G24L/R53K/R90D: 3.36, 4.92, 3.81.
P54W/S88E/R90K: ND, ND, ND.
S26W/P54N/R90I: ND, ND, 4.03.
G24P/D25P/R90H: 4.79, ND, ND.
L27Q/S88M/R90F: ND, 4.37, ND.
S26L/Y31M/R90F: ND, 4.97, ND.
R28G/N52M/R90G: 4.37, ND, ND.
S55A/R90A: ND, ND, ND.
G24K/R53F/R90W: 4.10, 4.19, 4.50.
N51C/R53N/R90G: 3.38, 4.32, ND.
Y29E/A32E/R90Q: ND, 3.46, ND.
G24T/R90P/S92C: 3.85, 4.00, ND.
R90G: 3.11, 2.91, 3.58.
G24Y/R90N: ND, 4.21, ND.
N33R/R90Y/S92Y: ND, ND, ND.
R90Q/D91T/G94D: ND, ND, ND.
E23W/S89A/R90Y: 2.96, 3.25, ND.
R90A/Q96M/V97C: 2.43, 2.59, 2.38.
R53P/R90W: 3.22, 3.67, ND.
D25Y/R90P: 3.10, 3.31, 2.91.
E23N/D25F/R90E: 3.71, 3.76, ND.
D25K/S26E/R90T: ND, ND, ND.
L27S/R90I/F95R: 4.80, ND, ND.
L27S/N33Q/R90L: ND, ND, ND.
D25P/R53C/R90K: 3.66, 3.04, 4.22.
A32Q/S89Q/R90L: 4.23, 3.75, ND.
N51L/R90C/F98V: 3.86, ND, ND.
N51R/S55C/R90E: ND, ND, ND.
N51T/R90L: 3.46, ND, ND.
A32V/R90T: 4.39, 4.64, ND.
Y30L/K50Q/R90T: 3.16, ND, ND.
Y29D/R90M/F98Y: 3.08, 3.31, 2.70.
R90C/D91K/S93W: 3.70, 4.20, ND.
N51V/R90E/F95Y: 3.76, 3.78, 4.54.
S89T/R90I: 5.76, ND, ND.
K50H/R53F/R90H: 3.52, ND, ND.
Y30E/S55G/R90L: 2.12, 1.68, 1.41.
A32P/R90W/F98T: ND, 4.10, ND.
S26I/Y30Q/R90H: 1.71, 1.62, 0.98.
L27G/K50Y/R90P: ND, ND, ND.
D25H/S55N/R90Q: 2.65, 3.83, 3.11.
R53P/R90N: ND, ND, 3.86.
P54K/R90D/F98V: 4.57, ND, ND.
E23F/S26M/R90P: 4.14, ND, ND.
R90N/S93M/Q96W: 4.27, 3.03, 3.95.
S88V/R90A: 2.62, 2.44, 2.05.
D25A/R90Q/F98T: ND, 4.93, ND.
D25R/K50C/R90E: ND, 5.19, 3.11.
Y30L/P54N/R90H: ND, ND, ND.
N51M/R90F: ND, ND, ND.

The opening 4 entries, copied out:

{"changes": "G24L/R53K/R90D", "log10 Kd, replicates": "3.36, 4.92, 3.81"}
{"changes": "P54W/S88E/R90K", "log10 Kd, replicates": "ND, ND, ND"}
{"changes": "S26W/P54N/R90I", "log10 Kd, replicates": "ND, ND, 4.03"}
{"changes": "G24P/D25P/R90H", "log10 Kd, replicates": "4.79, ND, ND"}

Parent in this assay: reference entry 2.31, copy in this library 2.25.